From US20180015075A1, “METHODS AND COMPOSITIONS FOR TREATMENT OF VENOUS MALFORMATION” (Children's Hospital Medical Center, priority 2016, published 2018)

Legend:
HUVEC-TIE2-L914F = experiment: cells; settings: Homo sapiens, read-out: Average proliferation Inhibition rate (%) L914F
HUVEC (non-transfected) = experiment: cells; settings: Homo sapiens, read-out: Average proliferation Inhibition rate (%) HUVEC
HUVEC-TIE2-WT = experiment: cells; settings: Homo sapiens, read-out: Average proliferation Inhibition rate (%) WT
[1] = test system: HUVEC TIE2-L914F VM lesions; experiment: In vivo murine model of VM; settings: regression study, start day 9 (about 100 mm^2), 14 days; Ponatinib 30 mg/kg, rapamycin 2 mg/kg or both

SMILES: O=P1(N(CCCl)CCCl)NCCCO1 (stereo not drawn) [Cyclophosphamide]
- inhibition at 20 µM (HUVEC-TIE2-L914F): 2.88%
- inhibition at 20 µM (HUVEC (non-transfected)): -1.06%

SMILES: c1cc(CN2CCCNCCNCCCNCC2)ccc1CN1CCCNCCNCCCNCC1 [Plerixafor]
- inhibition at 20 µM (HUVEC-TIE2-L914F): 5.99%
- inhibition at 20 µM (HUVEC-TIE2-WT): -2.43%
- inhibition at 20 µM (HUVEC (non-transfected)): 3.15%

SMILES: CO[C@H]1C[C@@H]2CC[C@@H](C)[C@@](O)(O2)C(=O)C(=O)N2CCCC[C@H]2C(=O)O[C@H]([C@H](C)C[C@@H]2CC[C@@H](O)[C@H](OC)C2)CC(=O)[C@H](C)/C=C(\C)[C@@H](O)[C@@H](OC)C(=O)[C@H](C)C[C@H](C)/C=C/C=C/C=C/1C [Sirolimus, Rapamycin]
- VM lesions that regressed/shrunk (of 16) [1]: 2/16
